For this experiment, the target named is T1, sPLA2-IIa (Homo sapiens, UniProt P14555).
T1 sequence (P14555 21-144): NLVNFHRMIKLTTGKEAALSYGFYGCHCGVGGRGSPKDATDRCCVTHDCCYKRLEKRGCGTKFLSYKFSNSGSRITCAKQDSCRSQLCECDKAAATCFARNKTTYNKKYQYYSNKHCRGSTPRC
The experiment can be described thus: Ligand efficiency / ligand lipophilicity efficiency from sPLA2-IIa IC50.

Regarding `CCc1c(C(=O)C(N)=O)c2c(OCC(=O)O)cccc2n1Cc1ccccc1` [varespladib], for the setting “pIC50 (sPLA2-IIa) – logD”, the LLE is given as 7.2. Also, the LE (−RT ln(sPLA2-IIa IC50)/heavy atom count) was 0.37 kcal/mol/HAC.

For the origin of these results see PMC5066155 (ACS Medicinal Chemistry Letters, 2016).
